{"sequences": {"note": "The chains behind the UniProt entries cited, without tags or fusion partners. Where a name states a change or a piece, a line headed by the entry shows the natural chain unless it says otherwise.", "UniProt P41144": "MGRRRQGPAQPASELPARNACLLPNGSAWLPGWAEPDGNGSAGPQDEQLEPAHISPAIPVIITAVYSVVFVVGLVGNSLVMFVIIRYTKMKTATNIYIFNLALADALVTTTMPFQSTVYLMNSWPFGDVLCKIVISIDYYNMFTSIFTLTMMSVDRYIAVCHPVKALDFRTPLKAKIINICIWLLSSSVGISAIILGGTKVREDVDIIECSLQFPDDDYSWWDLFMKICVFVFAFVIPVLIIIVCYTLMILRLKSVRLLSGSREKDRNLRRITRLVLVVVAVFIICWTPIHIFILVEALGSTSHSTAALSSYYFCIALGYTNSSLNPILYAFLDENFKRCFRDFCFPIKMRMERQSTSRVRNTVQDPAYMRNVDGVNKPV"}, "source": "ChEMBL document CHEMBL3632621", "about": "“Conformationally restricted κ-opioid receptor agonists: Synthesis and pharmacological evaluation of diastereoisomeric and enantiomeric decahydroquinoxalines” (Bioorg Med Chem Lett, 2015)", "target": "Kappa-type opioid receptor (Cavia porcellus, UniProt P41144)", "note": "pKi: −log10 of the molar value."}
{"smiles": "CN(C(=O)Cc1ccc(Cl)c(Cl)c1)[C@H]1CCCC[C@@H]1N1CCCC1", "values": [{"measurement": "pKi", "value": 9.47}]}
